Each structure is given as a SMILES string. Only a part is listed here, and it is no random draw. Results filed as inconclusive are left out. Calls of active or inactive are those of the source. Calls follow the shape of the dose curve; as a rule, active = well fitted inhibition curve with a large enough effect; inconclusive = small, poorly fitted or top-dose-only effect; inactive = no such curve, though single readings can be large or run the other way.

The values below come from PubChem BioAssay AID1745845 (National Center for Advancing Translational Sciences (NCATS), 2022).
% is scaled to controls: 0 for no effect and ±100 for the full control effect.

This experiment in a line: Primary qHTS for Inhibitors of ATXN expression. Also: nearly all actives have a fitted effect of over 55% in size. The conditions noted are these: HEK-293 ATXN2-luciferase reporter, luminescence, 24 h; at 57 µM (top of the series) unless noted.
For the compound `CP(=O)(Nc1ccccn1)Oc1ccc(Cl)cc1` (stereo not given), the activity change, negative = inhibition was inactive: -10.5%.
Regarding `CCOC(=O)c1ccc(NP(C)(=O)Oc2ccc(OC)cc2)cc1` (stereo not given), the activity change, negative = inhibition was inactive: 5.9%.
Regarding `O=[N+]([O-])c1cc([N+](=O)[O-])c(O)c([N+](=O)[O-])c1.c1ccc(Oc2ccncc2)cc1`, the activity change, negative = inhibition is inactive: -15.2%.
On to `CCOP(C)(=S)SCC(=O)NC(C)C(=O)O` (stereo not given), for which the activity change, negative = inhibition is inactive: 7.25%.
For `Cc1cc(C)cc(OP(C)(=O)Nc2ccc(SC(F)(F)F)cc2)c1` (stereo not given) the value was inactive: -18.6%; for `CP(=O)(NC(=O)Nc1ccccc1)Oc1ccccc1` (stereo not given), inactive: 5.96%; for `CP(=O)(Oc1ccccc1)OC(c1ccccc1)C(F)(F)F` (stereo not given), inactive: 7.61%.
For `Cc1cccc(C)c1OP(C)(=O)Nc1ccc(SC(F)(F)F)cc1` (stereo not given), the activity change, negative = inhibition is inactive: 3.63%.
Consider `CP(=O)(Nc1ccccc1Br)Oc1ccccc1` (stereo not given), for which the activity change, negative = inhibition was inactive: 0.0993%.
With `COc1ccccc1OP(C)(=O)Nc1ccccc1` (stereo not given), the activity change, negative = inhibition was inactive: -15.8%.
Regarding `CP(=S)(Nn1cnnc1)Oc1ccccc1` (stereo not given), the activity change, negative = inhibition is inactive: -20.1%.
The figure for `Cc1cc(C)cc(OP(C)(N)=O)c1` (stereo not given) is inactive: -10.5%.
The figure for `COc1ccc(OP(C)(=O)Nc2cccc(F)c2)cc1` (stereo not given) is inactive: 1.47%; for `COc1ccccc1OP(C)(=O)Nc1cc(Cl)ccc1C` (stereo not given) it is inactive: -6.87%; for `COc1ccccc1OP(C)(=O)Nc1ccc(C)cc1` (stereo not given) it is inactive: -2.77%.
In the case of `CCOC(=O)c1ccc(NP(C)(=O)Oc2ccccc2)cc1` (stereo not given), the activity change, negative = inhibition is inactive: 11.3%.
For `O=[N+]([O-])c1ccc2c(c1)C=Nc1ccccc1O2`, the activity change, negative = inhibition was inactive: 0.695%.
As to `Cc1cccc(C)c1OP(C)(N)=O` (stereo not given), the activity change, negative = inhibition is inactive: -3.57%.
For `COc1ccccc1-c1ccccn1.O=[N+]([O-])c1cc([N+](=O)[O-])c(O)c([N+](=O)[O-])c1` the value was inactive: -15.7%; for `CCN(CC)CCCOC(=O)C(O)(c1ccccc1)c1ccccc1`, inactive: 2.26%; for `Cc1ccc(C)c(NP(C)(=O)Oc2ccccc2)c1` (stereo not given), inactive: 0.29%.
The figure for `CP(=O)(Nc1cccc(Br)c1)Oc1ccccc1` (stereo not given) is inactive: -17.3%.
With `Cc1cc(C)cc(OP(C)(=O)Nc2ccccn2)c1` (stereo not given), the activity change, negative = inhibition is inactive: 2.62%.
As for `CCOC(=O)c1ccc(NP(C)(=O)Oc2cc(C)cc(C)c2)cc1` (stereo not given), the activity change, negative = inhibition was inactive: -14.4%.
On to `Cc1cc(C)cc(OP(C)(=O)Nc2ccc(C)cc2C)c1` (stereo not given), for which the activity change, negative = inhibition is inactive: -10.4%.
`COc1ccccc1OP(C)(=O)Nc1cccc(Br)c1` (stereo not given): the activity change, negative = inhibition was inactive: 6.86%.
For `CC1=NCCc2c1[nH]c1ccccc21.O=[N+]([O-])c1cc([N+](=O)[O-])c(O)c([N+](=O)[O-])c1` the value was inactive: -0.374%.
The figure for `O=[N+]([O-])c1cccc([N+](=O)[O-])c1` is inactive: -3.96% [at 116 µM]; for `CP(=O)(Nc1ccc(SC(F)(F)F)cc1)Oc1ccccc1` (stereo not given) it is inactive: -23%.
For `CCCOc1ccc(NP(C)(=O)Oc2ccc(Cl)cc2)cc1` (stereo not given) the value was inactive: -4.93% [at 11.3 µM]; for `COc1ccccc1OP(C)(=O)Nc1c(C)cccc1C` (stereo not given), inactive: 1.54%; for `CN1CCCCC1COC(=O)C1(O)c2ccccc2CCc2ccccc21` (stereo not given), inactive: -0.233%.
Turning to `CC1=C2N=C(C=C3N=C(C(C)=C4[N-][C@@](C)([C@@H]5N=C1[C@](C)(CCC(=O)NC[C@@H](C)OP(=O)([O-])O[C@H]1[C@@H](O)[C@@H](n6cnc7cc(C)c(C)cc76)O[C@@H]1CO)[C@H]5CC(N)=O)[C@@](C)(CC(N)=O)[C@@H]4CCC(N)=O)[C@@](C)(CC(N)=O)[C@@H]3CCC(N)=O)C(C)(C)[C@@H]2CCC(N)=O.[C-]#N.[Co+3]`, the activity change, negative = inhibition is inactive: -28.1%.
On to `Cc1nc2ccc3ccccc3c2s1.O=[N+]([O-])c1cc([N+](=O)[O-])c(O)c([N+](=O)[O-])c1`, for which the activity change, negative = inhibition is inactive: -18.1%.
As to `O=[N+]([O-])c1cc([N+](=O)[O-])c(-c2cnn(-c3ccccc3)c2)c([N+](=O)[O-])c1`, the activity change, negative = inhibition was inactive: -31.9%.
As to `CN(Cc1cccnc1)C(=O)COc1ccc(Cl)c(Cl)c1.O=[N+]([O-])c1cc([N+](=O)[O-])c(O)c([N+](=O)[O-])c1`, the activity change, negative = inhibition is inactive: -0.862%.
Consider `O=[N+]([O-])c1cc([N+](=O)[O-])c(-n2nnc3ccccc32)c([N+](=O)[O-])c1`, for which the activity change, negative = inhibition was inactive: -14.3%.
Turning to `Cc1ccccc1NP(C)(=O)Nc1ccccc1C`, the activity change, negative = inhibition is inactive: 0.0419%.
Consider `O=[N+]([O-])c1cc([N+](=O)[O-])c(C(F)(F)F)c([N+](=O)[O-])c1O`, for which the activity change, negative = inhibition was inactive: 20.9%.
As for `CP(=O)(Nc1ccc2c(c1)OCCO2)Oc1ccccc1` (stereo not given), the activity change, negative = inhibition is inactive: -1.66%.
Turning to `CCOP(C)(=S)SCC(=O)NC(C)(CC)C(=O)O` (stereo not given), the activity change, negative = inhibition was inactive: 55.5%.
For `CP(=O)(Nc1ccc(SC(F)(F)F)cc1)Oc1ccc(F)cc1` (stereo not given), the activity change, negative = inhibition was inactive: -28.4%.
Turning to `C/C1=C2N=C(/C=C3N=C(/C(C)=C4\[N-][C@@](C)([C@@H]5N=C1[C@](C)(CCC(=O)NC[C@@H](C)OP(=O)([O-])O[C@H]1[C@@H](O)[C@@H](n6cnc7cc(C)c(C)cc76)O[C@@H]1CO)[C@H]5CC(N)=O)[C@@](C)(CC(N)=O)[C@@H]4CCC(N)=O)[C@@](C)(CC(N)=O)[C@@H]\3CCC(N)=O)C(C)(C)[C@@H]/2CCC(N)=O.[C-]#N.[Co+3]`, the activity change, negative = inhibition is inactive: -15.7%.
For `Cc1c(C(c2ccc3c(c2)OCO3)c2c(C)n(C)n(-c3ccccc3)c2=O)c(=O)n(-c2ccccc2)n1C.O=[N+]([O-])c1cc([N+](=O)[O-])c(O)c([N+](=O)[O-])c1` the value was inactive: 6.24%; for `O=[N+]([O-])c1ccc(OP2(=O)COCCO2)cc1` (stereo not given), inactive: 1.93%.
As to `Cc1cc(-c2cccc3ccccc23)c(C)cn1.O=[N+]([O-])c1cc([N+](=O)[O-])c(O)c([N+](=O)[O-])c1`, the activity change, negative = inhibition is inactive: -31.9%.
`CN(C)CCOC(=O)C(O)(c1ccccc1)C1CCCCC1` (stereo not given): the activity change, negative = inhibition was inactive: 4.1%.
Turning to `COc1ccc(NP(C)(=O)Oc2ccccc2OC)cc1` (stereo not given), the activity change, negative = inhibition is inactive: -12.2% [at 11.3 µM].
Take `COc1ccc(OP(C)(=O)Nc2cccc(Br)c2)cc1` (stereo not given): the activity change, negative = inhibition was inactive: -9.03%.
In the case of `CP(=O)(Nc1ccccc1)Oc1ccc(F)cc1` (stereo not given), the activity change, negative = inhibition was inactive: -1.87%.
